Laboratory results: PubChem BioAssay AID1553 (Sanford-Burnham Center for Chemical Genomics, 2009)
Activity calls are given as the source filed them.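 How the source made its calls: active means compounds graded as giving a low, moderate or strong rise in tritium labelling of cell protein versus solvent control; inactive means the rest.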

System: HeLa cells, 3H-mannose incorporation into glycoproteins
Assay: increase in 3H-mannose incorporation into HeLa proteins, late-stage follow-up, orthogonal assay for PMI inhibitor project, HeLa cells (AID 1553);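 further: 1 fold = DMSO treated HeLa control cells; higher fold signals phosphomannose isomerase inhibition routing mannose into glycosylation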

Question: With O=P(Nc1nccs1)(c1ccccc1)c1nc2ccccc2s1 (configuration not stated) as the molecule, how does the fold increase 3H incorporation (at 100 µM) read?
Answer: Its fold increase 3H incorporation is inactive: 0.7.

Question: What about the fold increase 3H incorporation (fold increase, at 25 µM, stronger effect = higher value) of the same molecule?
Answer: Its fold increase 3H incorporation is 0.7.
